Data taken from patent publication US10870625B2, “Zwitterionic propargyl-linked antifolates useful for treating bacterial infections” (THE UNIVERSITY OF CONNECTICUT, priority 2016, dated 2020).

Biological target: MtbDHFR (Mycobacterium tuberculosis (strain ATCC 25618 / H37Rv), UniProt P9WNX1)
Assay: M. tuberculosis DHFR enzyme inhibition
Assay type: biochemical

## CCc1nc(N)nc(N)c1C#CC(C)c1cc2c(c(-c3cncn3C)c1)OCO2 (stereo not shown) [Compound 54]
  IC50: 0.326 µM
